Test system: db/db mice
Settings: db/db mice dorsal skin, vs before application

Question: For `O=C(NC12CC3CC(CC(C3)C1)C2)N[C@H]1CC[C@H](Oc2ccc(C(=O)O)cc2)CC1` (relative stereo) [t-AUCB, trans-4-[4-(3-Adamantan-1-yl-ureido)-cyclohexyloxy]-benzoic acid], which “thermal hyperemia 24 hours after application” value is on record?
Answer: returned to baseline values

— patent US20210378995A1, “METHODS AND TOPICAL PHARMACEUTICAL COMPOSITIONS FOR THE TREATMENT OF SKIN MICROVASCULAR DYSFUNCTION” (INSERM (INSTITUT NATIONAL DE LA SANTÉ ET DE LA RECHERCHE …, priority 2018, published 2021)
